Experimental findings from patent US6248712 are described below.

For test [1], the target named is human plasmin (human) (UniProt P00747).
For test [2] the target is unchanged. This is another data set of the same source.
Test [3] concerns the target human plasminogen (human) (UniProt P00747).

In the test with human plasmin (human) [1], aprotinin (from UniProt P00974) gave a Bound plasmin activity (%) at 3 h and 17 h of 13.2%. Also, the Pro-u-PA index (%) and bound plasmin activity (ng) with human plasmin (human) [2] came to 93%.
“human urokinase-type plasminogen activator, active two-chain 54 kD form (from UniProt P00749) (enzyme)” showed a kinetic constants for Glu-plasminogen activation: Km, kcat, kcat /Km in test [3] of 29300 M⁻¹ s⁻¹.
The same measure, in the same setting: the value for “u-PA bound to u-PAR on the cell surface (from UniProt P00749)” was 139000 M⁻¹ s⁻¹.
